Data reported in article PMC9715946, “Bioenhancing effects of piperine and curcumin on triterpenoid pharmacokinetics and neurodegenerative metabolomes from Centella asiatica extract in beagle dogs” (Scientific Reports, 2022).

Test: Percentage recovery in excreta (urine, faeces)
Assay type: in vivo, beagle dogs
Details: mean ± SD, n = 4; for Percent recovery in faeces: faeces 0–24 h; for Percent recovery in urine: urine 0–24 h
From the text: The proposed animal experiment was approved by the Institutional Animal Care and Use Committee of the Chulalongkorn University Laboratory Animal Centre (CULAC), Chulalongkorn University, Bangkok, Thailand (Protocol number 2073029, Approval date: February 5, 2021). […] The dogs were fed with a normal dog diet (Beauty Pro, Nippon Pet Food Co. Ltd.) once a day and water ad libitum. Two groups of four dogs were randomly used with a 2-week washout period. […] After receiving the test substances, the dogs were transferred to a metabolic cage for 48 h for the collection of urine and faeces. All animal procedures were performed in accordance with the ethical principles, regulations, and guidelines for the use of animals (National Research Council of Thailand, 2015). This study was conducted in compliance with the ARRIVE guidelines. […] All biological samples were kept at − 80 °C until required for analysis. Where the concentration of the samples exceeded the linear calibration curve, blank matrices were used to dilute the sample before protein precipitation. Methanol was used to extract the major triterpenoids from the biological samples for LCMS analysis. In brief, 50 µL of the biological sample was added to 200 µL methanol containing glycyrrhizin and glycyrrhetinic acid as internal standards. The mixture was then centrifuged at 12,000g for 10 min at 4 °C to collect the supernatant, and 10 µL of the supernatant was injected into the LCMS system to measure the concentration of the targeted analytes. […] The LCMS system was set up in accordance with the published method, using a Nexera Ultra High-Performance Liquid Chromatography equipped with 8060 triple quadrupole mass spectrometer controlled by LabSolution software version 5.86 (Shimadzu Corp.)[39]. A Synergi Fusion-RP C18 column (Phenomenex Inc.) was selected as the stationary phase and maintained at 40 °C in the column oven. […] S1, S2, and Table S1). The lower limit of quantification (LLOQ) of each of the compounds in this study ranged from 1.00 to 10.00 µg/L, according to the compound. After oral administration, pharmacokinetic parameters were determined by PK solution software version 2.0 (Submit Research Services, USA.) using non-compartmental analysis. The maximum plasma concentration (Cmax) and time to reach maximum plasma concentration (Tmax) were calculated directly from the concentration–time curves. The area under the curve from time 0–24 h (AUC0–24) was determined by the trapezoidal method and extrapolated to time infinity by the equation AUC0–inf = AUC0–24 + (Clast/kel), where Clast is the last measurable plasma concentration and kel is the elimination rate constant. The rate of bioavailability was equal to − 2.303 × slope. The mean residence time (MRT) was calculated as AUMC0–inf/AUC0–inf, where AUMC0–inf is the area under the first moment curve. The volume of distribution (Vd) was equivalent to dose/C0, where C0 is the concentration of drug measured in plasma at time zero. The total clearance (CL) was equal to dose/AUC0–inf, and the elimination half-life was determined by 0.693/kel. […] The difference in blood chemistry parameters pre-dose and post-dose was compared using Student’s t test. SPSS version 22.0 (IBM Corp.) was used to determine statistically significant differences between the experimental groups. The normal distribution of the data was checked using the Shapiro–Wilk test, and a paired Student’s t test or Wilcoxon signed-rank test was then performed, where appropriate. The percentage recovery of the test substances was calculated by dividing the total amount of test substance in the urine or faeces by the delivered dose. All data is presented as the mean ± standard deviation, except for Tmax and half-life, which are shown as median (IQR).

[1] = after CTS + Cur 20 mg/kg p.o., Day 1
[2] = after CTS + Cur 20 mg/kg p.o., Day 7
[3] = after CTS + Pip 20 mg/kg p.o., Day 1
[4] = after CTS + Pip 20 mg/kg p.o., Day 7
[5] = after CTS + Pip + Cur 20 mg/kg p.o., Day 1
[6] = after CTS + Pip + Cur 20 mg/kg p.o., Day 7

asiaticoside
Percent recovery in faeces (after CTS 20 mg/kg p.o., Day 1): 96.83 ± 12.20% | Percent recovery in faeces (after CTS 20 mg/kg p.o., Day 7): 70.43 ± 23.82% | Percent recovery in faeces [1]: 97.30 ± 33.83% | Percent recovery in faeces [2]: 90.81 ± 40.45% | Percent recovery in faeces [3]: 93.78 ± 7.60% | Percent recovery in faeces [4]: 93.82 ± 58.80% | Percent recovery in faeces [5]: 96.64 ± 15.44% | Percent recovery in faeces [6]: 94.41 ± 42.80% | Percent recovery in urine (after CTS 20 mg/kg p.o., Day 1): 2.90 ± 1.85% | Percent recovery in urine (after CTS 20 mg/kg p.o., Day 7): 5.35 ± 1.13% | Percent recovery in urine [1]: 1.90 ± 0.74% | Percent recovery in urine [2]: 3.11 ± 1.02% | Percent recovery in urine [3]: 7.29 ± 7.96% | Percent recovery in urine [4]: 6.04 ± 1.68% | Percent recovery in urine [5]: 3.10 ± 1.28% | Percent recovery in urine [6]: 2.17 ± 0.99%
